# Experimental data from patent US20240384323.
# Tested on: T1, IQ Probe (internally quenched linear polypeptide containing the S01 substrate)
# T1 sequence: LSGRSDNH
substance,measurement,value
Recombinant human uPA (urokinase-type plasminogen activator; R&D Systems 1310-SE),"kcat/KM of the S01 substrate, IQ Probe relative to C225-S01","4.6× and 3.5× times, respectively"
